Biological target: Acetylcholinesterase (Homo sapiens, UniProt P22303)

Sequences of proteins named here, by UniProt entry; tags and fusion partners are left off. A change or cut given only in a name is not applied to a line headed by its entry.
UniProt P22303: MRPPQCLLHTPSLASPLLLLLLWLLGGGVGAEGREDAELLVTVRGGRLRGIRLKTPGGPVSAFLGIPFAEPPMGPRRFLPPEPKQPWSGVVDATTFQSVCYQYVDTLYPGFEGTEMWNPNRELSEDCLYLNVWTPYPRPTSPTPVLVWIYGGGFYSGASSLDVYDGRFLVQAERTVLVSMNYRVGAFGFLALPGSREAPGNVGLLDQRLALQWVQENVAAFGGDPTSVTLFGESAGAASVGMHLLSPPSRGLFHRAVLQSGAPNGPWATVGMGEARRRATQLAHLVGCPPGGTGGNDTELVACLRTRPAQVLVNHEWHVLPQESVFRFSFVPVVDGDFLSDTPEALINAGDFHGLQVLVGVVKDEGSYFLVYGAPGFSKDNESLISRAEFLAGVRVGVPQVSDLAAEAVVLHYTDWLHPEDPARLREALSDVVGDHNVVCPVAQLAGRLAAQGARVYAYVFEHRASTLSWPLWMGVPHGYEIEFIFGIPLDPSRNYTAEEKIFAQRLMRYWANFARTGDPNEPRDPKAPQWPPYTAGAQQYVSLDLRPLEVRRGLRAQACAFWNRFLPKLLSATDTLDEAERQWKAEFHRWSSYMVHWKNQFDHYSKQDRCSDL

`COc1ccccc1CNCCCCCCNCCCCCCCCNCCCCCCNCc1ccccc1OC` [METHOCTRAMINE] gave an IC50 of 5.37 µM.
